In patent US20230088717A1, “NEW IMMUNOSTIMULATORS AND USE THEREOF IN IMMUNOTHERAPY” (NANTES UNIVERSITÉ, priority 2020, published 2023):

Key:
iNKT cells [1] = experiment: IFN-γ secretion by iNKTs after activation with HeLa-CD1d cells loaded with cetuximab coupling fractions; format: cell-based, human; conditions: for Observed concentration (glycolipid concentration equivalent to observed IFN-γ secretion): HeLa-CD1d cells
Description: (§1) First cetuximab was modified by adding TRAUT functions, with a ratio of 100 TRAUT molecules for 1 antibody. It allowed addition of at least 4 TRAUT functions to cetuximab, as determined by the Ellman reaction previously investigated (data not shown). The mixture was washed and then 1/1 equivalent of 6-Mal-PEG6-GalCer 3a and activated cetuximab were incubated to initiate the linkage.
(§2) The main difficulty encountered in these experiments is to ensure the elimination of the unreacted glycolipids in the medium after the coupling reaction with the antibody. Various methods were tested: Protein A, exclusion chromatography, electrophoresis, filtrations. Success was encountered when the resulting fractions were washed 3 time by filtration on VivaSpin15 column (MWCO: 50 Kda).
(§3) This condition was used as a control to follow the elimination of unbound glycolipid under washing conditions.
(§4) Experiments were run on two series of transfected-CD1d Hela cells and non-CD1d-Hela Cells and 3 diluted samples of fractions A and B (10 μg/ml, 1 μg/ml and 0.1 μg/ml) were evaluated. In each series of Hela cells stimulation activity of the glycolipid alone was previously evaluated as reference following IFN-γ secretion.
(§5) Maximum theoretical concentration of free glycolipid (unbounded) that can remain in the diluted fractions after coupling reaction if the washing process is inefficient.
(§6) Estimated theoretical concentration of glycolipid that have to be remained in the diluted fractions after the washing process to induce the level of observed cytokine secretion (based on the reaction control with free glycolipid).

iNKT cells [2] = experiment: IFN-γ secretion by iNKTs after activation with non transfected HeLa cells loaded with cetuximab coupling fractions; format: cell-based, human; conditions: for Observed concentration (glycolipid concentration equivalent to observed IFN-γ secretion): non transfected HeLa cells
Description: as §1, §2, §3, §4, §5, §6
as §1, with “½” for “1/1”
as §2, with “Kda) follow by purification on Superdex 200 10/300 GL column for size exclusion chromatography.” for “Kda).”
Two different experimental conditions were used to validate the purification process (see Table 9). • Fraction B: Cetuximab is not modified by TRAUT activation and 6-Mal-PEG6-GalCer 3a. This condition was used as a control to follow the elimination of unbound glycolipid under washing conditions.
Experiments were run on non-CD1d-Hela Cells and 3 diluted samples of fractions A and B (10 μg/ml, 1 μg/ml and 0.1 μg/ml) were evaluated. Mass spectrometry analysis indicate that two molecules of 6-Mal-PEG6-GalCer 3a were linked per antibody, so when 10 μg/ml of Fraction A was used, it corresponds approximately to a concentration of 10^−7M of equivalent 6-Mal-PEG6-GalCer 3a. In each series of Hela cells stimulation activity of the glycolipid alone was previously evaluated as reference following IFN-γ secretion.

HCT116 and HeLa cells = experiment: ADCC assay with NK92-CD16+ cells, mortality of target cells by flow cytometry; format: cell-based; conditions: 24 hours
Description: Another important function of cetuximab is its ability to induce ADCC. It was important to check the preservation of that behaviour from GalCer/Cetuximab complex C1. […] Target cells (HCT116 and HeLa cells) were coincubated for 1 hour with cetuximab alone (blue left panel) or Cetuximab-GalCer Complex C1 (red right panel). Then ADCC was initiated by addition of NK92-CD16+ cells (a conventionally cell line used for ADCC assay) follow by an incubation for 24 hours. Mortality of target cells was analysed by Flow Cytometry.

## GalCer/Cetuximab complex C1: TRAUT activated Cetuximab covalently linked to 6-Mal-PEG6-GalCer 3a
iNKT cells [1]; coupling product 0.1 μg/ml
  Observed concentration (glycolipid concentration equivalent to observed IFN-γ secretion): >10^−8M
iNKT cells [1]; coupling product 1 μg/ml
  Observed concentration (glycolipid concentration equivalent to observed IFN-γ secretion): >10^−8M
iNKT cells [1]; coupling product 10 μg/ml
  Observed concentration (glycolipid concentration equivalent to observed IFN-γ secretion): >10^−8M
iNKT cells [1]; transfected-CD1d Hela cells, fractions 10, 1 and 0.1 μg/ml
  IFN-γ cytokine release by iNKT cells: induces IFN-γ cytokine release by iNKT cells from all diluted fractions
iNKT cells [2]; coupling product 0.1 μg/ml
  Observed concentration (glycolipid concentration equivalent to observed IFN-γ secretion): >10^−6M
iNKT cells [2]; coupling product 1 μg/ml
  Observed concentration (glycolipid concentration equivalent to observed IFN-γ secretion): >10^−6M
iNKT cells [2]; coupling product 10 μg/ml
  Observed concentration (glycolipid concentration equivalent to observed IFN-γ secretion): >10^−6M
iNKT cells [2]; non-CD1d Hela cells, fractions 10, 1 and 0.1 μg/ml
  IFN-γ cytokine release by iNKT cells: induces IFN-γ cytokine release by iNKT cells from all diluted fractions
iNKT cells [2]; non-CD1d tumor cells
  cytokine secretion level compared with free 3a: upper level than the maximum release
HCT116 and HeLa cells
  ADCC potency: preserved in all conditions on both models
